ChEMBL document CHEMBL4261487, “Small structural changes of the imidazopyridine diacylglycerol acyltransferase 2 (DGAT2) inhibitors produce an improved safety profile” (Medchemcomm, 2017)

Target: T1, Diacylglycerol O-acyltransferase 2 (Homo sapiens, UniProt Q96PD7)
T1 sequence (Q96PD7 whole entry): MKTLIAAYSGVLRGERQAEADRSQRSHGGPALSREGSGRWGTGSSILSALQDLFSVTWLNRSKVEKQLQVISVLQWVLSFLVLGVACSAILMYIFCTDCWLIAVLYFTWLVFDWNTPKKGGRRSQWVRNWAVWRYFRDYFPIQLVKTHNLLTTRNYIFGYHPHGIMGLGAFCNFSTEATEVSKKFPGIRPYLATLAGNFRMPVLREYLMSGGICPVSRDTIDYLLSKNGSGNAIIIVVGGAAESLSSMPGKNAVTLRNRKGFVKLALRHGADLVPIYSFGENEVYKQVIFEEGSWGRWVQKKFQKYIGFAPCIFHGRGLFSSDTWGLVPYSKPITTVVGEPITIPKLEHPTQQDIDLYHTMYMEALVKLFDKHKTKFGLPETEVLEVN
Assay: Inhibition of human DGAT2
Outline: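 IC50 against human DGAT2 in an enzymatic assay, reported as the geometric mean of at least three replicates with SEM.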

With CS(=O)(=O)O.O=C([C@@H]1CCCN(c2ccc3nc(C4(n5cc(Cl)cn5)CC4)[nH]c3n2)C1)N1CCCC1 the IC50 was 17 nM.
